Test: UV spectrum as a function of pH (phenol deprotonation pKa)
Type: physicochemical
Conditions: fit of UV absorbance vs pH
Method: To probe the speciation of the manganese complexes in solution, pH titrations of 1:1 Mn^2+:ligand were performed using a 1 N NaOH under N2 atmosphere (FIG. 21).
To determine the species that exists in these two pH ranges the UV spectrum as a function of pH was monitored (see FIGS. 22-24). […] As the pH is increased the phenol deprotonates and coordinates to the manganese center.

2,2′-((2-((carboxymethyl)(2-hydroxy-5-methoxybenzyl)amino)cyclohexyl)azanediyl)diacetic acid [Compound 26]
pKa for ionization of the phenol: 5.01

Source: US20150336996A1, “MANGANESE-BASED MAGNETIC RESONANCE CONTRAST AGENTS” (THE GENERAL HOSPITAL CORPORATION, priority 2013, published 2015)
